The source of these data is ChEMBL document CHEMBL5252561, “Evaluation of darunavir-derived HIV-1 protease inhibitors incorporating P2' amide-derivatives: Synthesis, biological evaluation and structural studies” (Bioorg Med Chem Lett, 2023).

The test has as its target Human immunodeficiency virus type 1 protease (Human immunodeficiency virus 1) (UniProt Q72874). The test can be described thus: Potency index, ratio of darunavir Ki to test compound Ki for inhibition of HIV-1 protease using Abz-NF-6 as substrate assessed as inhibition constant measured every 2 mins for 20 mins by fluorescence based […] analysis. (ELISA stands for enzyme-linked immunosorbent assay.)

The structures appear in SMILES notation.

`CC(=O)Nc1ccc(S(=O)(=O)N(CC(C)C)C[C@@H](O)[C@H](Cc2ccccc2)NC(=O)O[C@H]2CO[C@H]3OCC[C@H]32)cc1`: the Ratio Ki is 20.
